Columns and labels:
[1] = in vivo; conditions: mouse, po
Protocol: The evaluation test was carried out using ICR female mice (i.e., body weight=18 to 22 g, 10 mice in each group).
(§1) The sample compounds listed in Table 3 were dispersed in 2.0% carboxymethyl cellulose/physiological saline solution and orally administered in a given amount by a peroral syringe. After the administration, the toxic conditions were observed and the oral acute toxicity (LD50) was calculated from the death number according to a Van Der Werden method.

[2] = in vivo; conditions: mouse, po; remark: listed apart in the source
Protocol: The evaluation test was carried out using ddY male mice (i.e., body weight =18 to 22 g, 10 mice in each group).
as §1, with “compound” for “compounds”, “2 was” for “3 were”, “0.5%” for “2.0%”, “number during 7 days of observation” for “number”, “Litchfield Wilcoxon” for “Van Der Werden”
The results are shown in Table 2, in which the compounds are shown by R in the general formula (I). The compound represented by R=H in Table 2 is a known reference compound, i.e., N-(2,3-xylyl)anthranilic acid.

In the case of `Cc1cccc(Nc2ccccc2C(=O)O)c1C` [N-(2,3-xylyl)anthranilic acid, reference compound], the LD50 [1] was 1250 mg/kg and the LD50 at 168 h [2] was 1400 mg/kg.

— US4666929A, “Anthranilic acid ester derivatives and antiinflammatory and analgetic external preparations containing the same” (Shiseido Company Ltd., priority 1985, dated 1987)
